We go through one compound from publication PMC6585649 (Clinical Pharmacology in Drug Development, 2018).

The nature of the series: Multiple-dose. In kind it is in vivo, human (healthy subjects).

“Also recorded” adds a separate entry of the source.

With `CC[C@@H]1CN(C(=O)NCC(F)(F)F)C[C@@H]1c1cnc2cnc3[nH]ccc3n12` [Upadacitinib], the “dose proportionality of exposure” value (15 to 30 mg once-daily ER regimens) is reported as “dose‐proportional”. Where the note is “multiple once-daily dosing, ER formulation”, the accumulation in plasma entry is “lack of accumulation; also recorded: no accumulation”.
